The target of this assay is T1, HIV protease (Human immunodeficiency virus type 1 group M subtype B, UniProt P04585).
T1 construct: HIV protease is diluted in the assay buffer to a final enzyme concentration of 12.3 nanomolar, based on a molecular weight of 10,780
Briefly: HIV protease enzyme assay (fluorescence, substrate 2-Ile-Nle-Phe(p-NO2)-Gln-ArgNH2). It is filed as biochemical. The note with it: Table 21. Here is the method:
The enzyme method is described below. […] The positive control is MVT-101 (Miller, M. et al, Science, 246, 1149 (1989)] The assay conditions are as follows:
Assay buffer: 20 mM sodium phosphate, pH 6.4 20% glycerol 1 mM EDTA 1 mM DTT 0.1% CHAPS
The above described substrate is dissolved in DMSO, then diluted 10 fold in assay buffer. Final substrate concentration in the assay is 80 μM.
The final concentration of DMSO is 14% and the final concentration of glycerol is 18%. The test compound is dissolved in DMSO and diluted in DMSO to 10× the test concentration; 10 μl of the enzyme preparation is added, the materials mixed and then the mixture is incubated at ambient temperature for 15 minutes. The enzyme reaction is initiated by the addition of 40 μl of substrate. The increase in fluorescence is monitored at 4 time points (0, 8, 16 and 24 minutes) at ambient temperature. Each assay is carried out in duplicate wells.

`CCC(C)[C@H](NC(=O)CNC)C(=O)N[C@@H](Cc1ccccc1)[C@H](O)CN(CCC(C)C)S(=O)(=O)c1ccccc1` (stereo partly shown) [Example 15] yielded an IC50 of 5 nM.
